Measurements: patent US20110166128A1, “Diaryldiazepine Prodrugs for the Treatment of Neurological and Psychological Disorders” (priority 2010, published 2011)

Assay: Equilibrium solubility in aqueous buffers as a function of pH
Details: room temperature; 0.1 M citrate (pH 4, 5) or 0.1 M phosphate (pH 6, 7, 8) buffers with 0.2 M NaCl; pH range 4-9 as stated
Excerpt: At pH 4 and 5, 0.1 M citrate buffers were used, while for pH 6, 7 and 8 a set of 0.1M phosphate buffers were used. Each buffer also contained 0.2 M NaCl. No cosolvents or other potentially solubilizing components were included. Buffer preparations were subdivided in order to individually test the solubility of only one material in a given buffer sample.

Cc1cc2c(s1)Nc1ccccc1N=C2N1CCN(C)CC1.O.O=C(O)c1cc2ccccc2c(Cc2c(O)c(C(=O)O)cc3ccccc23)c1O [olanzapine pamoate salt]
variation in solubility across the pH range studied: > 10 fold
